This note sets out measurements from US6046171A, “6,11-bridged erythromycin derivatives” (priority 1998, dated 2000).

This assay relates to Streptococcus Pheumoniae 5979. Kind of assay: in vitro antibacterial MIC, agar dilution. It counts as cell-based. The following applies: organism code ZZ; 35-37° C., 20 to 24 hours; unit assumed. Here is the method:
Representative compounds of the present invention were assayed in vitro for antibacterial activity as follows: Twelve petri dishes containing successive aqueous dilutions of the test compound mixed with 10 mL of sterilized Brain Heart Infusion (BHI) agar (Difco 0418-01-5) were prepared. Each plate was inoculated with 1:100 (or 1:10 for slow-growing strains, such as Micrococcus and Streptococcus) dilutions of up to 32 different microorganisms, using a Steers replicator block. The inoculated plates were incubated at 35-37° C. for 20 to 24 hours. In addition, a control plate, using BHI agar containing no test compound, was prepared and incubated at the beginning and end of each test.
An additional plate containing a compound having known susceptibility patterns for the organisms being tested and belonging to the same antibiotic class as the test compound was also prepared and incubated as a further control, as well as to provide test-to-test comparability. Erythromycin A was used for this purpose.
After incubation, each plate was visually inspected. The minimum inhibitory concentration (MIC) was defined as the lowest concentration of drug yielding no growth, a slight haze, or sparsely isolated colonies on the inoculum spot as compared to the growth control.
A general note: Agar dilution tests growth on a series of plates holding different concentrations.

`CC[C@H]1OC(=O)[C@H](C)[C@@H](O[C@H]2C[C@@](C)(OC)[C@@H](O)[C@H](C)O2)[C@H](C)[C@@H](O[C@@H]2O[C@H](C)C[C@H](N(C)C)[C@H]2O)[C@](C)(O)C[C@@H](C)C(=O)[C@H](C)[C@@H](O)[C@]1(C)O` [Ery. A, Erythromycin A, reference compound] gave an MIC greater than 128 µg/mL.

Broadly, the MIC is the least concentration at which growth counts as inhibited. The low end stands for a more susceptible organism, the high end for a less susceptible organism.
